Results taken from patent publication US8729110B1, “2-thio-1,3,4-oxadiazoles derivatives as sphingosine-1 phosphate receptors modulators” (Allergan, Inc., priority 2012, dated 2014).

Amino acid sequences for entries named in this document (tags omitted).
UniProt P21453, whole entry: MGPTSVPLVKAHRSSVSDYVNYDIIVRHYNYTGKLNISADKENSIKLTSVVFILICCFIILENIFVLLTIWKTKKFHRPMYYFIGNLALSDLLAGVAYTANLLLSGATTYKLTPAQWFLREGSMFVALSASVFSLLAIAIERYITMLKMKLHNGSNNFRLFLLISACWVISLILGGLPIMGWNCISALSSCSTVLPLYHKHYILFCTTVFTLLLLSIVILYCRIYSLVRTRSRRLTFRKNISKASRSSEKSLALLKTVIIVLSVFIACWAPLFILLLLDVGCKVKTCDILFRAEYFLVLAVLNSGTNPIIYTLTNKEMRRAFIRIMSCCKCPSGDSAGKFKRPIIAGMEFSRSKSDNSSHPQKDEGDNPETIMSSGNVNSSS

Biological target: human S1P1 receptor (Homo sapiens, UniProt P21453)
Assay: GTP γ35S binding assay for S1P1 activity
Conditions: read-out: S1P1 EC50; activity potency, S1P1 receptor from GTP γ35S binding; 5 μg membrane protein; test compounds 0.08 to 5,000 nM; 30 min at 25° C.
Protocol: Compounds were synthesized and tested for S1P1 activity using the GTP γ^35S binding assay. These compounds may be assessed for their ability to activate or block activation of the human S1P1 receptor in cells stably expressing the S1P1 receptor.
GTP γ^35S binding was measured in the medium containing (mM) HEPES 25, pH 7.4, MgCl2 10, NaCl 100, dithitothreitol 0.5, digitonin 0.003%, 0.2 nM GTP γ^35S, and 5 μg membrane protein in a volume of 150 μl. Test compounds were included in the concentration range from 0.08 to 5,000 nM unless indicated otherwise. Membranes were incubated with 100 μM 5′-adenylylimmidodiphosphate for 30 min, and subsequently with 10 μM GDP for 10 min on ice. Drug solutions and membrane were mixed, and then reactions were initiated by adding GTP γ^35S and continued for 30 min at 25° C. Reaction mixtures were filtered over Whatman GF/B filters under vacuum, and washed three times with 3 mL of ice-cold buffer (HEPES 25, pH7.4, MgCl2 10 and NaCl 100). Filters were dried and mixed with scintillant, and counted for ^35S activity using a β-counter. Agonist-induced GTP γ^35S binding was obtained by subtracting that in the absence of agonist. Binding data were analyzed using a non-linear regression method. In case of antagonist assay, the reaction mixture contained 10 nM […] in the presence of test antagonist at concentrations ranging from 0.08 to 5000 nM.

SMILES: Cc1ccc(C(C)Sc2nnc(-c3ccc(CNCCCP(=O)(O)O)cc3)o2)cc1C (stereo not shown)
- EC50: 1050 nM
